Measured values: article PMC3360951 (Chemistry & biology, 2008)
Like-named read-outs stand apart in the source and are kept apart here.

Sequences of proteins named here, by UniProt entry; tags and fusion partners are left off. Residues count along the entry.
UniProt P07288, 25-261: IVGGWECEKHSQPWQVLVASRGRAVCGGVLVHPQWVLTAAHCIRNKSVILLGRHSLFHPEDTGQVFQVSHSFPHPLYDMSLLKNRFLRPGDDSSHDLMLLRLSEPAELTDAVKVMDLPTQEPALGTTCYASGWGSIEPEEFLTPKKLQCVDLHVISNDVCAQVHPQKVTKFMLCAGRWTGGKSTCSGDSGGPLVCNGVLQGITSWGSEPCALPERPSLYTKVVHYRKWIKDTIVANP
UniProt P27487, whole entry, species assumed: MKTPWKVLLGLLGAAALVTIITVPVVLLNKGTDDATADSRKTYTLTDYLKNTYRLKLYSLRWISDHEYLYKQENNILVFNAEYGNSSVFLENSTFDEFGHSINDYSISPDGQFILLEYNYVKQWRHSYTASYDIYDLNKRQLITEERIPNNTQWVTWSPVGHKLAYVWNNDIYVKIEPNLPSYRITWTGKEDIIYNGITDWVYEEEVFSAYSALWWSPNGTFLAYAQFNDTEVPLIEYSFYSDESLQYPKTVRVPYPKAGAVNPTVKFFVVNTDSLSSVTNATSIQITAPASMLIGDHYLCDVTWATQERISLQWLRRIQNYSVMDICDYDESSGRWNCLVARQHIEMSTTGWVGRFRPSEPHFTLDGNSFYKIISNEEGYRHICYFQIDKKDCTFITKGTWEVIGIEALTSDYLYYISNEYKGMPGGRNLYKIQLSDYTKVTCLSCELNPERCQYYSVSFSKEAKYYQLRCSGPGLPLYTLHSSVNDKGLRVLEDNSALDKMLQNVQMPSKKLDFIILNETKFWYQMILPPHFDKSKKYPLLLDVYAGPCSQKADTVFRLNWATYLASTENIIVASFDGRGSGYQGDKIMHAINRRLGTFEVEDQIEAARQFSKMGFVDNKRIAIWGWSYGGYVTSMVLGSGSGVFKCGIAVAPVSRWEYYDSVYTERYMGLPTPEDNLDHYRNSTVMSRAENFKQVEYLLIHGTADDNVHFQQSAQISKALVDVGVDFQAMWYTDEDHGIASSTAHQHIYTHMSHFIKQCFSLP
UniProt P80209, 45-390: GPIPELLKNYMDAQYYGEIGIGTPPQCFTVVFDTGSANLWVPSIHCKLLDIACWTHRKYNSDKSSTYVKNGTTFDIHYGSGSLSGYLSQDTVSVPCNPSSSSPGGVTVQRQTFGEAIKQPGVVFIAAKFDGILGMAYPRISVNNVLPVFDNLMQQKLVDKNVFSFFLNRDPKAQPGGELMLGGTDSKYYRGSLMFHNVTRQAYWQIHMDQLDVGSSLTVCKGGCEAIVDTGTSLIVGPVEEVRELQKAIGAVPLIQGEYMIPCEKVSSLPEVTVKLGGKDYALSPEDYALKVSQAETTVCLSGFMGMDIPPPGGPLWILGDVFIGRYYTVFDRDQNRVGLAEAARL

Experiments:
Format in all cases: biochemical
PSA = PSA (Homo sapiens, UniProt P07288); test: PSA activity assay, inhibition kinetics by progress curves
cathepsin B = cathepsin B (Homo sapiens, UniProt P07858); test: Protease specificity: cathepsin B + Z-RR-AMC
[1] = biological target: dipeptidyl peptidase 4 (DPP-4) (Homo sapiens, UniProt P27487); test: Protease specificity: DPP-4 + AP-AFC; settings: DPPIV
cathepsin D = cathepsin D (Bos taurus, UniProt P80209); test: Protease specificity: Cathepsin D Assay Kit

| Substance | Ki (PSA) | further results |
| --- | --- | --- |
| Z-SSK(Boro)Nle [compound 35] | 34.2 ± 0.83 µM | – |
| Z-KNle-H [compound 20] | > 1000 µM | – |
| Z-SSKLNle-OH [compound 27] | > 1000 µM | – |
| Z-YL-H [compound 10] | 514 ± 11.5 µM | – |
| Z-KL-H [compound 11] | > 1000 µM | – |
| Z-SSKLNle-H [compound 18] | 11.2 ± 0.26 µM | – |
| Z-LLL-H (MG132) [compound 17, reference compound] | 13.2 ± 0.86 µM | Ki (PSA; listed as Z-LLL-H (MG132)): 13.2 µM |
| Z-SSKNle-H [compound 22] | > 1000 µM | – |
| Z-SSKAL-H [compound 7] | 173 ± 6.12 µM | – |
| Z-SSKLL-NH2 [compound 25] | > 1000 µM | – |
| Z-SSKLNle-NH2 [compound 28] | > 1000 µM | – |
| Z-SSKQL-H [compound 3] | 21.8 ± 0.51 µM | Ki (PSA; listed as Z-SSKQL-H): 21.8 µM |
| Z-SSL(boro)L [compound 47] | 3.86 ± 0.29 µM | – |
| Z-QL-H [compound 12] | > 1000 µM | – |
| Z-SKLL-H [compound 8] | 42.4 ± 2.13 µM | – |
| Z-SSK(boro)L [compound 34] | 18.5 ± 1.48 µM | – |
| Z-KL(boro)L [compound 36] | 5.98 ± 0.24 µM | – |

| Substance | Ki (PSA) | further results |
| --- | --- | --- |
| Z-SSKL-H [compound 13] | > 1000 µM | – |
| Z-SSKLL-OH [compound 24] | > 1000 µM | – |
| Z-SSKLL-CH2OH [compound 26] | > 1000 µM | – |
| Z-K(boro)L [compound 33] | 353 ± 23.7 µM | Ki (PSA; listed as Z-K(boro)L): 353 µM |
| Z-KL(boro)Nle [compound 37] | 23.6 ± 0.47 µM | – |
| Z-QNle-H [compound 21] | > 1000 µM | – |
| Z-SSKL(boro)Nle [compound 38] | 0.398 ± 0.02 µM | – |
| Z-SSKL(boro)L [compound 39] | ~0.065 µM | Ki (cathepsin B): > 500 µM; Ki [1]: > 100 µM; Ki (cathepsin D): > 500 µM |
| Z-SSKVL-H [compound 6] | 70.7 ± 1.77 µM | Ki (PSA; listed as Z-SSKVL-H): 70.7 µM |
| Z-SSKIL-H [compound 4] | 37.4 ± 2.43 µM | Ki (PSA; listed as Z-SSKIL-H): 37.4 µM |
| Z-SSLKL-H [compound 15] | > 500 µM | – |
| Z-Q(boro)L [compound 32] | 265 ± 18.4 µM | Ki (PSA; listed as Z-Q(boro)L): 265 µM |
| Z-KLL-H [compound 9] | 171 ± 6.88 µM | – |
| Z_KLNle-H [compound 19] | 414 ± 22.5 µM | – |
| Z-LKSSL [compound 16] | > 1000 µM | – |
| Z-SSKKL-H [compound 5] | 57.8 ± 1.14 µM | Ki (PSA; listed as Z-SSKKL-H): 57.8 µM |
| Z-SSK(Ac)L(boro)L [compound 48] | 0.294 ± 0.026 µM | – |
